In US11214542B2, “Histone demethylase inhibitors” (CELGENE QUANTICEL RESEARCH, INC., priority 2012, dated 2022):

Test system: KYSE-150 esophageal carcinoma cell line
Assay: Cell proliferation assay, BrdU incorporation ELISA after 168 hr compound incubation
Assay type: cell-based, human
Conditions: KYSE-150 cells, read-out: Cellular IC50

IC50: 1 to 10 µM
Substance: 3-{[(6-chloro-1-hydroxy- 1,2,3,4-tetrahydronaphthalen- 1-yl)methyl]amino}pyridine- 4-carboxylic acid [Example 67]
